# Reported vapor pressure values for industrial, environmental and drug-like chemicals

From the experimental data distributed with OPERA 2.9.

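These are experimental values that the OPERA curators gathered from public databases to train and test their QSAR models. A listed value is a point estimate from one report or more. Conditions of the individual experiments are not part of the data. A value may pool stereoisomers or salt forms, and the file does not say which form was measured. Some upstream entries may be estimates or bounds without being marked so.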

Vapor pressures (log10 mmHg) refer to near room temperature, 15 to 30 °C; higher is more volatile. "n/a" marks a cell with nothing listed here.

| structure (SMILES) | name | log vapor pressure (log10 mmHg) |
|---|---|---|
| C1CC(N2CCOCC2)CCN1 | 4-Morpholinopiperidine | -2.326 |
| c1ccc(OP(Oc2ccccc2)Oc2ccccc2)cc1 | Triphenyl phosphite | -3.286 |
| FC(F)(F)OC(F)(Cl)C(F)(F)Cl (configuration not stated) | 1,2-Dichloro-1,1,2-trifluoro-2-(trifluoromethoxy)ethane | 2.539 |
| O=C(NCCc1ncc(C(F)(F)F)cc1Cl)c1ccccc1C(F)(F)F | Fluopyram | -8.046 |
| Nc1cc(Cl)ccc1O | 2-Amino-4-chlorophenol | -2.824 |
| COCc1cnc(C2=NC(C)(C(C)C)C(=O)N2)c(C(=O)O)c1 (configuration not stated) | Imazamox | -7.001 |
| Cl/C=C/C[N+]12CN3CN(CN(C3)C1)C2.[Cl-] | N-(3-Chloroallyl)hexaminium chloride | -7 |
| CCOC(=O)c1cn2nc(OP(=S)(OCC)OCC)cc2nc1C | Pyrazophos | -5.783 |
| N#CC1(N=NC2(C#N)CCCCC2)CCCCC1 | 1,1'-Diazene-1,2-diyldicyclohexanecarbonitrile | -5.586 |
| Cc1cc(C)c(C(=O)P(=O)(c2ccccc2)c2ccccc2)c(C)c1 | Diphenyl(2,4,6-trimethylbenzoyl)phosphine oxide | -7.792 |
| COCCOC(=O)C(C#N)(C(=O)c1ccccc1C(F)(F)F)c1ccc(C(C)(C)C)cc1 (configuration not stated) | Cyflumetofen | -7.354 |
| COc1cc(OC)nc(Oc2cccc(Oc3nc(OC)cc(OC)n3)c2C(=O)[O-])n1.[Na+] | Bispyribac-sodium | -10.38 |
| Cc1cc(C(C)(C)C)c(OP2COC3(COP(Oc4c(C(C)(C)C)cc(C)cc4C(C)(C)C)OC3)OC2)c(C(C)(C)C)c1 (configuration not stated) | n/a | -9.084 |
| c1ccc2c(c1)CCNC2 | 1,2,3,4-Tetrahydroisoquinoline | -1.474 |
| CCCCCCCCCC[N+](C)(C)CCCCCCCCCC.CCCCCCCCCC[N+](C)(C)CCCCCCCCCC.CCCCCCCCCC[N+](C)(C)CCCCCCCCCC.O=C([O-])O.O=C([O-])[O-] | DDA Carbonate | -4.238 |
| COP1(=S)OCc2ccccc2O1 (configuration not stated) | Dioxabenzofos | -2.654 |
| COc1cc(C)c(C(=O)c2c(OC)ccc(Br)c2C)c(OC)c1OC | Metrafenone | -5.939 |
| COCCNC(=O)CSP(=S)(OC)OC | Amidithion | -5.565 |
| O=C(CCl)C(Cl)Cl | 1,1,3-Trichloropropanone | -0.648 |
| c1nc[nH]n1 | 1H-1,2,4-Triazole | -2.782 |
| C=C(C#N)C(=O)OC(C)CCCCCC (configuration not stated) | 2-Propenoic acid, 2-cyano-, 1-methylheptyl ester | -1.557 |
| Clc1cc(Cl)c(-c2c(Cl)cccc2Cl)c(Cl)c1 | 2,2',4,6,6'-Pentachlorobiphenyl | -3.896 |
| OCCSSCCO | 2-Hydroxyethyl disulfide | -4.844 |
| C=CP(=O)(O)O | Phosphonic acid, P-ethenyl- | -6.51 |
| Cc1cccc(C)c1N(Cn1cccn1)C(=O)CCl | Metazachlor | -6.156 |
| CC1(C)COC(=O)[C@@H]1O | Pantolactone | -1.974 |
| O=S1(=O)OCCO1 | Ethylene glycol, cyclic sulfate | -2.03 |
| CCOC(=O)C(Cc1ccccc1)C(C)=O (configuration not stated) | Ethyl 2-benzyl-3-oxobutanoate | -2.907 |
| CC(CC(=O)NCCCCCC(=O)[O-])CC(C)(C)C.OCC[NH+](CCO)CCO (configuration not stated) | n/a | -4.306 |
| C(COCC1CO1)OCC1CO1 (configuration not stated) | Ethylene glycol diglycidyl ether | -0.984 |
| CC(C)(C)CC(C)(C)OO | Hydroperoxide, 1,1,3,3-tetramethylbutyl | -0.949 |
| CCc1cc(Cc2cc(CC)c(N)c(CC)c2)cc(CC)c1N | 4,4'-Methylenebis(2,6-diethylaniline) | -11.65 |
| CC(C)(c1ccc(OP(=O)(Oc2ccccc2)Oc2ccccc2)cc1)c1ccc(OP(=O)(Oc2ccccc2)Oc2ccccc2)cc1 | 2,2-Bis[4-[bis(phenoxy)phosphoryloxy]phenyl]propane | -5.061 |
| Clc1cccc(-c2ccccc2)c1Cl | 2,3-Dichlorobiphenyl | -2.914 |
| CCOC(OCC)c1ccc2c(c1)OCO2 | 1,3-Benzodioxole, 5-(diethoxymethyl)- | -2.522 |
| CC(C)(C)CC(C)(C)c1ccc(Nc2ccc(C(C)(C)CC(C)(C)C)cc2)cc1 | N,N-Bis(4-tert-octylphenyl)amine | -7.084 |
| NCCCNCCCN | Norspermidine | -2.024 |
| COc1ccc(C=O)cc1OC | Veratraldehyde | -3.171 |
| Brc1ccccc1-c1ccccc1Br | 2,2'-Dibromobiphenyl | -4.155 |
| Clc1ccc2oc3cc(Cl)c(Cl)cc3c2c1 | 2,3,8-Trichlorodibenzofuran | -4.095 |
| CN(C)CCN(C)C | N,N,N',N'-Tetramethylethylenediamine | 1.088 |
| Clc1ccc(-c2cc(Cl)c(Cl)c(Cl)c2Cl)cc1 | 2,3,4,4',5-Pentachlorobiphenyl | -4.375 |
| CC(C)(c1cc(Br)c(OCC2CO2)c(Br)c1)c1cc(Br)c(OCC2CO2)c(Br)c1 (configuration not stated) | n/a | -6.779 |
| FC(F)OCC(F)(F)C(F)(F)F | Difluoromethyl 1H,1H-perfluoropropyl ether | 2.527 |
| CCCOC(=O)OOC(=O)OCCC | Dipropyl peroxydicarbonate | 0.429 |
| CCOCCN(C(=O)CCl)C(=C(C)C)c1ccccc1 | Pethoxamid | -5.593 |
| [N-]=[N+]=CC(=O)OC[C@H](N)C(=O)O | Azaserine | -9.815 |
| Clc1cccc(-c2ccc(Cl)cc2Cl)c1 | 2,3',4-Trichlorobiphenyl | -3.625 |
| COP(=S)(OC)SCC(=O)N(c1ccc(Cl)cc1)C(C)C | Anilofos | -4.783 |
| Nc1ccc(Cl)cc1O | Phenol, 2-amino-5-chloro- | -4.824 |
| O=C([O-])CCCCCNc1nc(NCCCCCC(=O)[O-])nc(NCCCCCC(=O)[O-])n1.[Na+].[Na+].[Na+] | n/a | -6.534 |
| CC(Oc1ccc(Oc2ccc(Cl)cc2Cl)cc1)C(=O)O (configuration not stated) | Diclofop | -10.63 |

Excerpt, the final 4 entries:

| structure (SMILES) | name | log vapor pressure (log10 mmHg) |
|---|---|---|
| COP(=S)(OC)SCC(=O)N(c1ccc(Cl)cc1)C(C)C | Anilofos | -4.783 |
| Nc1ccc(Cl)cc1O | Phenol, 2-amino-5-chloro- | -4.824 |
| O=C([O-])CCCCCNc1nc(NCCCCCC(=O)[O-])nc(NCCCCCC(=O)[O-])n1.[Na+].[Na+].[Na+] | n/a | -6.534 |
| CC(Oc1ccc(Oc2ccc(Cl)cc2Cl)cc1)C(=O)O (configuration not stated) | Diclofop | -10.63 |